Assay results reported in US20250062039A1, “ESTIMATION OF PHARMACOKINETIC (PK) PARAMETERS OF DRUG CANDIDATES USING UNIVERSAL PK PARAMETERS BOUNDS” (Tata Consultancy Services Limited, priority 2023, published 2025).

Assay: Published pharmacokinetics of alfentanil, IV bolus, 7 subjects (Bower & Hull 1982)
Conditions: IV Bolus 161.74 μg; maximum over 7 subjects (Rule 1)

## CCC(=O)N(c1ccccc1)C1(COC)CCN(CCn2nnn(CC)c2=O)CC1
  CL, Selected Parameter Value: 23.38 L/h
  K10, Selected Parameter Value: 2.11 h⁻¹
  K12, Selected Parameter Value: 5.39 h⁻¹
  K21, Selected Parameter Value: 3.68 h⁻¹
  T1/2beta, Selected Parameter Value: 2.34 h
  V1, Selected Parameter Value: 15.17 L
  V2, Selected Parameter Value: 24.18 L
  Vss, Selected Parameter Value: 38.69 L

Only a part of the results on these compounds is given; other tests are left out.
